# Ab-91 heavy chain CDR variants: yeast mating affinities

Reference: Engelhart et al. 2022, doi:10.1038/s41597-022-01779-4. File: FLAb, binding data.

Target peptide (SARS-CoV-2 spike, HR2 region): PDVDLGDISGINAS

Each scFv is VL, a (GGGGS)3 linker, VH, as in the parent Ab-91, and differs from it in the CDRs of the heavy chain only.
VL: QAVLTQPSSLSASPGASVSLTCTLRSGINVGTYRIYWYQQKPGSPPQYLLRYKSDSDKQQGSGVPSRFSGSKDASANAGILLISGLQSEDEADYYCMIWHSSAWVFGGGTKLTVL
VH: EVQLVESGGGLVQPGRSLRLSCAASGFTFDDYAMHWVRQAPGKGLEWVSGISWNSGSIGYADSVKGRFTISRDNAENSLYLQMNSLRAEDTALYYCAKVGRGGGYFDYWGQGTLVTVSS

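Phage display of a naive human antibody library on the peptide gave the parent. Library AAYL51 holds single substitutions and randomly drawn double and triple substitutions in the CDRs. The scFvs were displayed on barcoded MATa yeast, the peptide on MATalpha yeast. After mating in shaken culture at 30 °C for 16 h, diploids were selected and their barcode pairs sequenced. Scores were corrected for input abundance and mapped to Kd with protein pairs of known affinity run in the same pool. Mating was done three times.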

Positions count from residue 1 of the parent VH; F27D puts D in place of F.
The read-out is the apparent dissociation constant on a log10 scale (nM): the lower, the stronger.
The mean shown is taken over the replicates in which the pair was detected.
"n.d." means that the variant was in the library but no mating with the target was seen in that replicate; the authors take this as a sign of poor binding, and no number exists.
As a blank, each scFv also met three strains without target: over library AAYL51, 21% of these pairings were detected, typically at 4.54 and seldom below 3.26. Also given: how often the same scFv was detected with the empty control strains, with their mean in brackets.
In this assay the parent's reference entry averaged 1.86; its copy inside this library read 0.88.

{"changes": "F27D/G104P/Y105K", "log10 Kd, replicates": "n.d. / 4.44 / n.d.", "log10 Kd (nM), mean": "4.44", "signal with controls": "1/9 (3.85)"}
{"changes": "Y32C/N54T/G56H", "log10 Kd, replicates": "n.d. / n.d. / n.d.", "log10 Kd (nM), mean": "n.d.", "signal with controls": "1/9 (2.79)"}
{"changes": "G59H/V64C/G102K", "log10 Kd, replicates": "5.39 / 5.06 / n.d.", "log10 Kd (nM), mean": "5.22", "signal with controls": "2/9 (5.15)"}
{"changes": "G26C/A33K/Y60L", "log10 Kd, replicates": "n.d. / 5.05 / n.d.", "log10 Kd (nM), mean": "5.05", "signal with controls": "0/9"}
{"changes": "Y60E/S63G", "log10 Kd, replicates": "3.37 / 4.00 / 2.87", "log10 Kd (nM), mean": "3.41", "signal with controls": "2/9 (3.66)"}
{"changes": "V99E/G104V/D107K", "log10 Kd, replicates": "5.51 / 3.07 / 5.16", "log10 Kd (nM), mean": "4.58", "signal with controls": "4/9 (4.87)"}
{"changes": "F29I/W53P/F106H", "log10 Kd, replicates": "0.94 / 0.92 / 0.50", "log10 Kd (nM), mean": "0.79", "signal with controls": "6/9 (5.12)"}
{"changes": "D30F/S55A/F106R", "log10 Kd, replicates": "4.84 / 4.31 / 5.79", "log10 Kd (nM), mean": "4.98", "signal with controls": "7/9 (4.74)"}
{"changes": "T28L/A61D/D107W", "log10 Kd, replicates": "2.61 / 3.24 / 3.44", "log10 Kd (nM), mean": "3.09", "signal with controls": "2/9 (3.56)"}
{"changes": "G26E/T28K/M34I", "log10 Kd, replicates": "n.d. / n.d. / n.d.", "log10 Kd (nM), mean": "n.d.", "signal with controls": "0/9"}
{"changes": "F27S/G56I/Y108M", "log10 Kd, replicates": "n.d. / n.d. / 4.16", "log10 Kd (nM), mean": "4.16", "signal with controls": "4/9 (4.07)"}
{"changes": "F29E/S55C/G102I", "log10 Kd, replicates": "n.d. / n.d. / n.d.", "log10 Kd (nM), mean": "n.d.", "signal with controls": "1/9 (3.76)"}
{"changes": "A33P/N54W/K65Q", "log10 Kd, replicates": "n.d. / n.d. / n.d.", "log10 Kd (nM), mean": "n.d.", "signal with controls": "0/9"}
{"changes": "Y60L/Y105P", "log10 Kd, replicates": "6.08 / n.d. / 4.71", "log10 Kd (nM), mean": "5.39", "signal with controls": "0/9"}
{"changes": "T28M/A61N/G103H", "log10 Kd, replicates": "4.91 / n.d. / n.d.", "log10 Kd (nM), mean": "4.91", "signal with controls": "3/9 (4.17)"}
{"changes": "A33I", "log10 Kd, replicates": "3.98 / n.d. / n.d.", "log10 Kd (nM), mean": "3.98", "signal with controls": "0/9"}
{"changes": "D31H/D62L/V64Q", "log10 Kd, replicates": "3.83 / n.d. / n.d.", "log10 Kd (nM), mean": "3.83", "signal with controls": "5/9 (4.16)"}
{"changes": "G50P/Y60G/G102N", "log10 Kd, replicates": "n.d. / n.d. / n.d.", "log10 Kd (nM), mean": "n.d.", "signal with controls": "2/9 (4.37)"}
{"changes": "W53P/V99W/F106C", "log10 Kd, replicates": "n.d. / n.d. / 4.13", "log10 Kd (nM), mean": "4.13", "signal with controls": "0/9"}
{"changes": "N54G/K65F/Y105W", "log10 Kd, replicates": "n.d. / n.d. / n.d.", "log10 Kd (nM), mean": "n.d.", "signal with controls": "0/9"}
{"changes": "G56P/G59Y/Y105E", "log10 Kd, replicates": "5.41 / 5.12 / n.d.", "log10 Kd (nM), mean": "5.27", "signal with controls": "5/9 (4.65)"}
{"changes": "F27Y/H35Q/N54M", "log10 Kd, replicates": "n.d. / n.d. / n.d.", "log10 Kd (nM), mean": "n.d.", "signal with controls": "0/9"}
{"changes": "M34Q/I51L/D107K", "log10 Kd, replicates": "n.d. / 4.18 / n.d.", "log10 Kd (nM), mean": "4.18", "signal with controls": "1/9 (4.49)"}
{"changes": "K65P/Y108T", "log10 Kd, replicates": "5.44 / 4.26 / n.d.", "log10 Kd (nM), mean": "4.85", "signal with controls": "6/9 (4.52)"}
{"changes": "Y32M/S63W/D107M", "log10 Kd, replicates": "n.d. / n.d. / n.d.", "log10 Kd (nM), mean": "n.d.", "signal with controls": "1/9 (4.08)"}
{"changes": "G50E/S63N/G102L", "log10 Kd, replicates": "n.d. / n.d. / n.d.", "log10 Kd (nM), mean": "n.d.", "signal with controls": "1/9 (5.66)"}
{"changes": "F29V/I58N/A61F", "log10 Kd, replicates": "5.43 / 6.43 / n.d.", "log10 Kd (nM), mean": "5.93", "signal with controls": "2/9 (4.72)"}
{"changes": "I51V/S57H", "log10 Kd, replicates": "3.32 / 3.74 / 3.62", "log10 Kd (nM), mean": "3.56", "signal with controls": "6/9 (5.02)"}
{"changes": "G26C/W53P/G102E", "log10 Kd, replicates": "2.61 / 3.02 / 1.96", "log10 Kd (nM), mean": "2.53", "signal with controls": "0/9"}

A selection of 5 entries from above:

| changes | log10 Kd, replicates | log10 Kd (nM), mean | signal with controls |
|---|---|---|---|
| A33P/N54W/K65Q | n.d. / n.d. / n.d. | n.d. | 0/9 |
| Y32M/S63W/D107M | n.d. / n.d. / n.d. | n.d. | 1/9 (4.08) |
| D31H/D62L/V64Q | 3.83 / n.d. / n.d. | 3.83 | 5/9 (4.16) |
| Y60E/S63G | 3.37 / 4.00 / 2.87 | 3.41 | 2/9 (3.66) |
| G50E/S63N/G102L | n.d. / n.d. / n.d. | n.d. | 1/9 (5.66) |